Data from patent US20130045299A1, “Natural Mold Inhibitor and Methods of Using Same” (priority 2011, published 2013).

Assay: pH of baked bread
Type: physicochemical
Conditions: Table 9; 0.33%

## CCC(=O)[O-].CCC(=O)[O-].[Ca+2] [Calcium Propionate, calcium propionate]
  pH Bread: 5.31
